The numbers were not newly measured in patent publication US12594283B2 (The Medical College of Wisconsin, Inc., priority 2019, dated 2026), which cites them from elsewhere.

In the series the target is T1, cyt bc1 (Plasmodium falciparum, UniProt Q02768).
T1 sequence (Q02768 1-376): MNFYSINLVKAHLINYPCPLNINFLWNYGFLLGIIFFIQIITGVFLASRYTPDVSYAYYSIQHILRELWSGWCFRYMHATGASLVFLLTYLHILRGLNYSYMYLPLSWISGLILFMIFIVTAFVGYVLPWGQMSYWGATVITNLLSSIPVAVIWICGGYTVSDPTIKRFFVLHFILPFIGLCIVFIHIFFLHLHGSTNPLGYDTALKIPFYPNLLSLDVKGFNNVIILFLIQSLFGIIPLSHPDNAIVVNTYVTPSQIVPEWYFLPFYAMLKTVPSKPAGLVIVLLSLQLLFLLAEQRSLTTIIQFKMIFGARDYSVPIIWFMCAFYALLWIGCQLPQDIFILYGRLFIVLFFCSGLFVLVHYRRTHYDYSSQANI
To be noted: read-out: IC50 for inhibition of cyt bc1; malarial parasites; cited from earlier work.

As for `O=C1C(O)=C([C@H]2CC[C@H](c3ccc(Cl)cc3)CC2)C(=O)c2ccccc21` [ATO, trans-2-[4-(4-chlorophenyl)cyclohexyl]-3-hydroxy-1,4-naphthalene-dione], the IC50 was ~3 nM.

In general, IC50 refers to the concentration that inhibits the measured activity by half.
